Laboratory results published in patent publication EP1000039B1 (Wyeth Holdings Corporation, priority 1997, dated 1999).

Target: T1, His-tagged cytoplasmic domain of EGFR (Homo sapiens, UniProt P00533)
T1 construct: containing the EGFR cDNA encoding amino acids 645 - 1186 preceded by Met-Ala-(His)6; Met-Ala-(His)6 (N); made in house; host or cells: Sf9 insect cells, recombinant baculovirus vHcEGFR52
Assay: Inhibition of Epidermal Growth Factor Receptor Kinase (EGF-R) using recombinant enzyme, RR-SRC peptide phosphorylation
Type: biochemical

N-[4-(3-Bromo-phenylamino)-quinazolin-6-yl]-2-morpholin-4-ylmethyl-acrylamide [Example 63]
IC50: 5 pM
